Assay results published in PubChem BioAssay AID1259318 (Sanford-Burnham Center for Chemical Genomics, 2017).
This is a selection; strong and weak results do not stand in their true shares. Active and inactive are the calls of the source.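 The calls were made as follows: active = activity above about 14% (limit read from the data; passing the limit was not always enough); inactive = the rest.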

The chains behind the UniProt entries cited, without tags or fusion partners.
UniProt P20393, whole entry, looked up: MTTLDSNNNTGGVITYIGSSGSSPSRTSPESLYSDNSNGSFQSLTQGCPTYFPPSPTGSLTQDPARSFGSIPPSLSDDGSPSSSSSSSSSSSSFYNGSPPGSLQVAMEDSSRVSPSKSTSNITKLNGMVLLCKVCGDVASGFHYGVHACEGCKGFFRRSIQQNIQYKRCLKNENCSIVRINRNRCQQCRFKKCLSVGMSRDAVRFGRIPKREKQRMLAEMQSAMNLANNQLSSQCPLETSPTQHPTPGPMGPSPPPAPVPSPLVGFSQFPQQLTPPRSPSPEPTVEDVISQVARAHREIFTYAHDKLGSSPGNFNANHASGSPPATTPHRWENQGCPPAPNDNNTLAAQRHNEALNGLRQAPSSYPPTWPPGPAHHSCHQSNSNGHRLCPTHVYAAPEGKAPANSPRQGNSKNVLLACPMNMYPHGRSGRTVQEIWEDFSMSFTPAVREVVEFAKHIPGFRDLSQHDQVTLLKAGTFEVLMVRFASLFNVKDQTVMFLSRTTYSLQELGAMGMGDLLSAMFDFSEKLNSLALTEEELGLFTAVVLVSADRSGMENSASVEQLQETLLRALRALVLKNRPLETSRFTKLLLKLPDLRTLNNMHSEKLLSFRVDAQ

Target: Nuclear receptor subfamily 1 group D member 1 (Homo sapiens) (UniProt P20393)
Assay: Rev-erbα–DNA interaction modulation – biochemical, FITC-DNA, fluorescence polarization, uHTS, primary screen (AID 1259318);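 also: 0% = DMSO wells with 35 nM protein and 100% = DMSO wells with 750 nM protein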
Details: Rev-erbα–FITC-DNA binding, 90 min, at 10 µM, hits give high values

Row | Structure (SMILES) | activity
1 | NC(=O)Nc1ccc([As](=O)(O)O)cc1 | inactive: -1.17%
